Literature values, collected in US5028692A, “Gastrin releasing peptide antagonist” (Merck & Co., Inc., priority 1989, dated 1991).

The chains behind the UniProt entries cited, without tags or fusion partners. Where a name states a change or a piece, a line headed by the entry shows the natural chain unless it says otherwise.
UniProt P30550: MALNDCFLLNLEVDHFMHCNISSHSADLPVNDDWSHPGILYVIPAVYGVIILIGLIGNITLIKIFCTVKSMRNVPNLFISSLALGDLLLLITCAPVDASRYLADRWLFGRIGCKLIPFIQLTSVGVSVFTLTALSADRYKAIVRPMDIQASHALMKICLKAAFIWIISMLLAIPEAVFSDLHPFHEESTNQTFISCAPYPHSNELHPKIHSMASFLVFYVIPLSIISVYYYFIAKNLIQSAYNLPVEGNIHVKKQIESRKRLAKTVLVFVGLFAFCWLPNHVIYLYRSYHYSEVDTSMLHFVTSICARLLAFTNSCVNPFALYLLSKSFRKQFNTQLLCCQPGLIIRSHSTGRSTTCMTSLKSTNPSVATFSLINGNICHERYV
UniProt P21729: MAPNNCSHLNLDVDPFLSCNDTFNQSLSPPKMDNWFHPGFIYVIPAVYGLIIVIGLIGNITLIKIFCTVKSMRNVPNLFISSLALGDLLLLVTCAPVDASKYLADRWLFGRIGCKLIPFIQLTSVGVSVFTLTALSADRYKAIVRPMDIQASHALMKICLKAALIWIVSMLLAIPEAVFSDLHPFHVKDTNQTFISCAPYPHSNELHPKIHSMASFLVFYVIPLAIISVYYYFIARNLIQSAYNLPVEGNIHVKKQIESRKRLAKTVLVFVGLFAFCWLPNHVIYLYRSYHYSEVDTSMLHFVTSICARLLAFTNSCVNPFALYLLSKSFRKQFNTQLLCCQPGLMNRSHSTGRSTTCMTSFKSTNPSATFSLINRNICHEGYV

Experiments:
[1] = target: bombesin receptor (Homo sapiens, UniProt P30550)
[2] = target: T1, bombesin receptor (Mus musculus, UniProt P21729); settings: Swiss 3T3 cells
T1 construct: host or cells: Swiss 3T3 cells (endogenous receptor)

Substance: [Leu^14 -.PSI.-CH2 NH-Leu^13 ] bombesin
- improvement in binding affinity compared to previously reported bombesin receptor antagonists [1]: 100 fold
- bombesin receptor antagonism [2]: specific bombesin receptor antagonist
